Four compounds from US10172814B2, “Substituted pyridyl-cycloalkyl-carboxylic acids, compositions containing them and medical uses thereof” (BAYER PHARMA AKTIENGESELLSCHAFT, priority 2014, dated 2019) can be followed below.

By UniProt entry, the sequences of proteins in these tests, tags left out. Where a name states a change or a piece, a line headed by the entry shows the natural chain unless it says otherwise.
UniProt O14684: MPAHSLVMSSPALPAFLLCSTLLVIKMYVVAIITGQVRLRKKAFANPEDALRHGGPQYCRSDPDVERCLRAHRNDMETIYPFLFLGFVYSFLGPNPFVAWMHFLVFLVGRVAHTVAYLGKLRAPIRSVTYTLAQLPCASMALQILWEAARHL

The assay has as its target human PTGES (Homo sapiens (Human), UniProt O14684). Description: Human PTGES biochemical enzyme inhibition assay (conversion of PGH2 to PGE2, TR-FRET). The settings on record: Enzymatic conversion of PGH2 to PGE2.
Broadly, the IC50 is the point on the concentration scale where inhibition reaches its midpoint. Low readings indicate inhibition by little substance, high ones a need for much substance. `Cc1c(NC(=O)C(c2ccc(-c3cncc(C(F)(F)F)c3)cc2)C2CCC2)cccc1C(C)CC(=O)O` (single isomer, unassigned; stereoisomer 1) [Example 131, 3-{3-[(Cyclobutyl{4-[5-(trifluoromethyl)pyridin-3-yl]phenyl}acetyl)amino]-2-methylphenyl}butanoic acid, Stereoisomer 1] came in with an IC50 of 1020 nM.

The compound `Cc1c(NC(=O)C(c2ccc(-c3cncc(C(F)(F)F)c3)cc2)C2CCC2)cccc1C(C)CC(=O)O` (single isomer, unassigned; stereoisomer 2) [Example 132, 3-{3-[(Cyclobutyl{4-[5-(trifluoromethyl)pyridin-3-yl]phenyl}acetyl)amino]-2-methylphenyl}butanoic acid, Stereoisomer 2] gave a 50% inhibitory concentration (IC50) of 38.6 nM.

Turning to `Cc1c(NC(=O)C(c2ccc(-c3cncc(C(F)(F)F)c3)cc2)C2CCC2)cccc1C(C)CC(=O)O` (single isomer, unassigned; stereoisomer 3) [Example 133, 3-{3-[(Cyclobutyl{4-[5-(trifluoromethyl)pyridin-3-yl]phenyl}acetyl)amino]-2-methylphenyl}butanoic acid, Stereoisomer 3], the IC50 was 1770 nM.

As for `Cc1c(NC(=O)C(c2ccc(-c3cncc(C(F)(F)F)c3)cc2)C2CCC2)cccc1C(C)CC(=O)O` (single isomer, unassigned; stereoisomer 4) [Example 134, 3-{3-[(Cyclobutyl{4-[5-(trifluoromethyl)pyridin-3-yl]phenyl}acetyl)amino]-2-methylphenyl}butanoic acid, Stereoisomer 4], 7.59 nM corresponded to half-maximal inhibition (IC50).
